Earlier results as cited in US20230265432A1, “METHODS AND COMPOSITIONS FOR TREATING ACUTE MYELOID LEUKEMIA” (Sanford Burnham Prebys Medical Discovery Institute, priority 2021, published 2023).

Protein sequences, listed by entry. Tags and fused reporters are not part of them.
UniProt Q92993, whole entry, species assumed: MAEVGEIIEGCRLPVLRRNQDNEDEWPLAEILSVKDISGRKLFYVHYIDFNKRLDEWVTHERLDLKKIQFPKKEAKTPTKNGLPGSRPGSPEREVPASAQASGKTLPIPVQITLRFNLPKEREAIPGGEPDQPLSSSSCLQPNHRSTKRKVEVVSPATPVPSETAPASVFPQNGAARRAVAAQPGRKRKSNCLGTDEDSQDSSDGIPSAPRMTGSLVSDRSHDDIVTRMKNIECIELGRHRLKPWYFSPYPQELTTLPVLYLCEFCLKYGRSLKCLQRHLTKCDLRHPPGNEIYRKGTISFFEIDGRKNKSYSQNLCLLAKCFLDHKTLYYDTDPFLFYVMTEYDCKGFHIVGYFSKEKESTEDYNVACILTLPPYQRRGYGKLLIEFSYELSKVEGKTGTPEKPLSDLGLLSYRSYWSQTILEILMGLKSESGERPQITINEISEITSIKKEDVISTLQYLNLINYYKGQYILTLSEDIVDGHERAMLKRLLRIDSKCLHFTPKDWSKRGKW

Tests used:
Conditions in all cases: cited from earlier work
BET proteins = tested on: BET proteins
Tip60 = Tip60 (Homo sapiens, UniProt Q92993)
BD2 = tested on: BD2

Question: With `CCNC(=O)C[C@@H]1N=C(c2ccc(Cl)cc2)c2cc(OC)ccc2-n2c(C)nnc21` [I-BET-762] as the molecule, how does the IC50 (BET proteins) read?
Answer: The IC50 was ~35 nM.

Question: Which IC50 (Tip60) does the source give for `CCCCCCCc1ccc(CCc2cccc(O)c2C(=O)O)cc1` [MG149] here?
Answer: The IC50 was 74000 nM.

Question: With `COc1cc(OC)c2c(=O)[nH]c(-c3cc(C)c(OCCO)c(C)c3)nc2c1` [RVX-208] as the molecule, how does the IC50 (BD2) read?
Answer: Its IC50 is 510 nM.
